## scFv variants of Ab-14 (heavy chain) against a SARS-CoV-2 spike peptide

All variants were tested on one target, the spike HR2 peptide PDVDLGDISGINAS (SARS-CoV-2).

Ab-14 is the parent antibody, in scFv form: VH, then a 15-residue (Gly4Ser)3 linker, then VL. The light chain is unchanged in all variants.
VH: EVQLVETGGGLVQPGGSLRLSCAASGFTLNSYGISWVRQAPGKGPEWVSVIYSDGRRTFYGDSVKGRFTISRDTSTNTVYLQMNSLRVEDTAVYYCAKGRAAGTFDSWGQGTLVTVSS
VL: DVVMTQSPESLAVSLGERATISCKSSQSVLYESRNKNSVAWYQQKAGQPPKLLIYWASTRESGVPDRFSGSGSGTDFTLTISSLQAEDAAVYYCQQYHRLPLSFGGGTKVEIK

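This is the validation round: designs drawn from the data on random variants, tested in the same kind of assay. Group labels follow the data file (En: ensemble of fine-tuned language models; HC: hill climbing; Gen: genetic algorithm; Gibbs: Gibbs sampling; a sequence that several methods proposed may carry one label only). In AlphaSeq, yeast of one mating type display the scFv and yeast of the other type display the target. The frequency of each diploid, read from paired DNA barcodes, reflects how well the two displayed proteins bind. Scores were corrected for input abundance and mapped to Kd with protein pairs of known affinity run in the same pool. Mating was done six times.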

Each variant is given by its three heavy chain CDRs, as the data file delimits them; those of the parent are GFTLNSYGIS, VIYSDGRRTFYGDSVK, GRAAGTFDS. Variants here have more than six changes. Kd is apparent (estimated from mating counts) and averaged on the log scale over replicates with a signal. Smaller is tighter. An entry "nd" has no value in the source: the pair was not observed among the diploids in any replicate. This suggests poor binding but is not conclusive.

With KFDLEAYGIS / VIYADGVRTGYVNKVK / GDTGGMFDM [En_Gibbs] the result was nd (0 of 6 replicates). Variant GFDLNEYGIS / VIYADGMRTFYSDSVK / GNQAGTFDS [En_HC] showed 1.4 nM (6 of 6 replicates). Variant GFNLEDYGIS / VIYADGKRTAYADSVK / GEVAGTFDV [En_HC] gave 530 pM (6 of 6 replicates). For GFDLNEYGIS / VIYADGQRTFYADSVK / GQVAGTFDM [En_HC], the assay gave 210 pM (6 of 6 replicates). For GYDLDQYGIS / VIYADGMRSVYHDSVK / GHEGDTFYV [En_Gibbs], the assay gave 5.6 nM (6 of 6 replicates). Variant GFDLNEYGIS / VIYADGMRTSYSDSVK / GENAGTFDV [En_Gen] gave 170 pM (6 of 6 replicates). Variant GFDLNEYGIS / VIYADGRRTFYADSVK / GNIAGTFDV [En_HC] showed 210 pM (6 of 6 replicates). With GFDLNEYGIS / VIYADGSRTFYADSVK / GEAAGTFDL [En_HC] the result was 840 pM (6 of 6 replicates).

With GFDLNEYGIS / VIYADGVRTAYADNVK / GEVAGTFDL [En_Gen] the result was 23 nM (6 of 6 replicates). Variant GFDLEDYGIS / VIYADGMRTAYADDVK / GENAGTFDV [En_Gen] gave 1.0 nM (6 of 6 replicates). With GFDLNEYGIS / VIYADGVRTAYTDSVK / GTNAGTFDI [En_Gen] the result was 480 pM (6 of 6 replicates). With GFDLDEYGIS / VIYADGMRTAYADKVK / GNVAGTFDV [En_Gen] the result was 400 pM (6 of 6 replicates). Variant GFDLNEYGIS / VIYADGRRTFYADKVK / GEVAGTFDV [En_HC] showed 260 pM (6 of 6 replicates). Variant GFDLNEYGIS / VIYADGRRTFYADSVK / GNTAGTFDV [En_Gen] gave 460 pM (6 of 6 replicates). With GFDLNEYGIS / VIYADGKRTAYIDSVK / GNVAGTFDM [En_Gen] the result was 900 pM (6 of 6 replicates). Variant GYSLEEYGIS / VIYADGRRQAYADNVK / GMSGNDGMF [En_Gibbs] showed nd (0 of 6 replicates).

Variant GFDLNEYGIS / VIYADGRRTAYSDSVK / GEAGGTFDI [En_HC] gave 630 pM (6 of 6 replicates). For GFDLNEYGIS / VIYADGMRTAYSDSVK / GEVAGTFDL [En_Gen], the assay gave 420 pM (6 of 6 replicates). Variant GFDLNEYGIS / VIYADGVRTAYADSVK / GNTAGTFDI [En_Gen] showed 660 pM (6 of 6 replicates). Variant GFDLNEYGIS / VIYADGRRTFYSDSVK / GEHAGTFDV [En_HC] gave 310 pM (6 of 6 replicates). Variant GFDLNEYGIS / VIYADGVRTYYADDVK / GNVAGTFDL [En_Gen] gave 330 pM (6 of 6 replicates). For GFDLNEYGIS / VIYADGMRTAYVDSVK / GKNAGTFDV [En_Gen], the assay gave 270 pM (6 of 6 replicates). With GFDLNEYGIS / VIYADGMRTAYADSVK / GEQAGTFDI [En_Gen] the result was 320 pM (6 of 6 replicates). For GFDLNEYGIS / VIYADGMRTFYTDSVK / GEFAGTFDF [En_HC], the assay gave 1.5 nM (5 of 6 replicates).

Variant GFDLDEYGIS / VIYADGQRTAYSDSVK / GNQAGTFDL [En_Gen] showed 320 pM (6 of 6 replicates). For GKNIDEYGVS / VIYADGKRTAYANNFK / GSNAGFFKS [En_Gibbs], the assay gave nd (0 of 6 replicates). Variant GFDLMEYGIS / VIYADGVRTAYQDQVK / GQEAGALYT [En_Gibbs] gave nd (0 of 6 replicates). With GFDLEDYGIS / VIYADGVRTAYSQNSK / GINGVALYI [En_Gibbs] the result was nd (0 of 6 replicates). Variant KFDLEAYGIS / VIYADGVRRAYVDKVK / GQTGGMFDM [En_Gibbs] gave nd (0 of 6 replicates). With GFNLEEYGIS / VIYADGMRTAYTDKVK / GGLDVQEGY [En_Gibbs] the result was nd (0 of 6 replicates). Variant GFDLDEYGIS / VIYADGIRYHYQDSVK / GNVVGSVLY [En_Gibbs] showed nd (0 of 6 replicates). With GFNLDEYGIS / VIYADGRRTFYADSVK / GQVAGTFDN [En_HC] the result was 250 pM (6 of 6 replicates).

For GFDLNEYGIS / VIYADGMRTAYTDSVK / GTNAGTFDI [En_Gen], the assay gave 290 pM (6 of 6 replicates).

The authors' rule: three or more of the six replicates give a measured affinity, fewer mean a poor binder. As a blank, each scFv also met three strains without target: over all heavy chain designs, 1% of these pairings were detected, typically at 120 nM and seldom below 7.0 nM. The range of this assay differs from that of the first round, and the authors advise against merging the two.

Reference: Li et al. 2023, doi:10.1038/s41467-023-39022-2. File: FLAb, binding data.